Target: T1, DPP-4 (manufactured by Sigma, derived from porcine kidney) (Sus scrofa, UniProt P22411)
T1 construct: derived from porcine kidney; purchased Sigma; host or cells: porcine kidney (tissue-derived)
Assay: DPP-4 inhibition rate and IC50 measurement, fluorescence of AMC freed from Gly-Pro-MCA
Format: biochemical
Conditions: Table 2; for Inhibition rate (%) at 0.35 mg/ml time: sample 0.35 mg/ml, substrate Gly-Pro-MCA, pH 7.5, 37° C.; for IC50 value: sample concentration changed between 0.001 and 7.2 μmol/ml
Protocol: A sample liquid 35 μl obtained by dissolving a sample 1 mg in 50 mM tris-hydrochloric acid buffer (pH 7.5) 1 ml and DPP-4 (manufactured by Sigma, derived from porcine kidney; 8.6 mU/ml) 15 μl that had been dissolved in 50 mM tris-hydrochloric acid buffer (pH 7.5) were mixed in a microtiter plate well (manufactured by NUNC, trade name “237015”) and incubated at 37° C. for 10 minutes.
Thereto, 50 μl of a substrate solution (one obtained by dissolving glycyl-Pro-4-methylcoumarin-7-amide (Gly-Pro-MCA) in 50 mM tris-hydrochloric acid buffer (pH 7.5) so as to be 10 μM) that had in advance heated to and kept at 37° C. was added, mixed, and allowed to react at 37° C. for 20 minutes.
The fluorescence intensity of 7-amino-4-methylcoumarin (AMC) that was freed by DPP-4 was measured with time by a microplate reader type fluorescence detector (manufactured by Corona Electric Co., Ltd., trade name “SH-9000”). Note that the measurement wavelength was an excitation wavelength of 380 nm and a measurement wavelength of 460 nm. Note that one obtained by using the same amount of 50 mM tris-hydrochloric acid buffer (pH 7.5) in replace of the sample was used as a control; and the fluorescence intensity thereof was measured.
The activity of DPP-4 was expressed by an average gradient of change in the amount of the fluorescence intensity during the reaction time; and, as for DPP-4 inhibition rate, difference obtained by, with the control as 100%, subtracting the activity of the sample from the above-mentioned control was calculated as an inhibition rate (%).
In accordance with the above method of measuring a DPP-4 inhibition rate, sample concentration was changed between 0.001 and 7.2 μmol/ml to obtain the inhibition rate, thereby calculating the 50% inhibitory concentration (IC50 value) of the activity of DPP-4.

Inhibition rate (%) at 0.35 mg/ml time [%]	IC50 value	Substance
0	No inhibitory	Ala-Hyp (AP; non-natural residues) [Comparative Example 6, reference compound]
0	No inhibitory	Hyp-Gly (PG; non-natural residues) [Comparative Example 7, reference compound]
0	No inhibitory	Phe-Hyp (FP; non-natural residues) [Comparative Example 4, reference compound]
0	No inhibitory	Pro-Hyp (PP; non-natural residues) [compound 5, reference compound]

Reference: US9340579B2, “DPP-4 inhibitor” (NIPPI, INCORPORATED, priority 2011, dated 2016)
